{"source": "patent US11987804B2", "about": "“Rapamycin resistant cells” (Seattle Children's Hospital, priority 2018, dated 2024)", "key": {"[1]": {"test_system": "primary human CD4+ T cells", "assay": "Two-phase expansion protocol for μDISC edTreg", "format": "cell-based", "conditions": "IL-2 50 ng/mL in media after editing, Expansion Phase 1", "description": "In a two-phase expansion protocol, cell expansion was conducted in two phases: Expansion Phase 1 tested rapamycin selection with or without IL-2 (50 ng/mL) in the recovery media, followed by Expansion Phase 2, addition of anti-CD3/CD28 beads, and removal of IL-2 from media. Generally, CD4 T cells were isolated at Day-4 from human PBMCs cultured in T cell media with 50 μg/mL IL-2 and anti-human CD3/CD28 beads. At Day-1, CD3/CD28 beads were removed. During Expansion Phase 1 (Days 0-9), gene editing was performed with CRISPR/Cas9 RNPs and AAV6 (an exemplary construct is shown in FIG. 13A). Cells were divided into three expansion cohorts as described below. Flow cytometry was performed at Day 2 to assess gene editing. At Day 9, cells were further divided into two expansion cohorts to test bead and antibody CD3/CD28 stimulation. Upon completion of Expansion Phase 2 (Day 16), flow cytometry was then performed to assess enrichment and expansion of edited cells.\nWithout being bound to theory, it is believed that Expansion Phase 1 promotes selective enrichment of DISC edTreg/μDISC edTreg in rapamycin, which allows edited cells to out-compete unedited cells prior to Expansion Phase 2, where CD3/CD28 stimulation will result in an expansion in the number of DISC edTreg. […]"}, "[2]": {"test_system": "CD4+ T cells", "assay": "Selective expansion of DISC/HA-FOXP3 edited Treg cells (flow cytometry for HA tag and FOXP3)", "format": "cell-based, human", "conditions": "50 ng/mL IL-2, 10 nM Rapamycin or 100 nM AP21967"}, "[3]": {"test_system": "primary human CD4+ T cells", "assay": "Three-phase expansion protocol for μDISC edTreg (flow cytometry HA/FOXP3, cell counts)", "format": "cell-based", "description": "Recovered cells after Expansion Phase 0 were then transferred to the G-Rex flask and expanded in rapamycin (Expansion Phase 1; Days 3-10) to allow DISC edTreg enrichment, followed by addition of anti-CD3/CD28 beads (Expansion Phase 2; Days 10-15). The same AAV construct as shown in FIG. 13A was used in this experiment.\nAfter Expansion Phase 1 (Day 10), successfully edited cells were assessed by flow cytometry."}, "[4]": {"test_system": "CD4+ T cells", "assay": "Regulatory T cell marker phenotype of DISC-expressing edited Treg cells", "format": "cell-based, human", "conditions": "IL-2 50 ng/mL, rapamycin 10 nM or AP21967 100 nM"}, "[5]": {"conditions": "5 ng/mL IL-2 during Expansion Phase 0"}}}
{"substance": "IL-2: interleukin-2 cytokine added to T cell culture media", "values": [{"measurement": "total cell yield (FIG. 13B)", "setting": "[1]", "value": "improved the total cell yield"}, {"measurement": "percentage of double positive cells (expressing HA-FOXP3), DISC/HA-FOXP3", "setting": "[2]; 7 day post-treatment", "value": 4.92, "unit": "%"}, {"measurement": "percentage of double positive cells (expressing HA-FOXP3), Mock", "setting": "[2]; 7 day post-treatment, mock cells", "value": 0.010, "unit": "%"}, {"measurement": "percentage of double positive cells (expressing HA-FOXP3), DISC/HA-FOXP3", "setting": "[2]; 15 day post-treatment", "value": 2.12, "unit": "%"}, {"measurement": "number of μDISC edTreg (FIGS. 14A-14B)", "setting": "[3]; [5]", "value": "slightly fewer"}, {"measurement": "μDISC edTreg share of the total cells", "setting": "[3]; [5]", "value": "~70", "unit": "%"}, {"measurement": "enrichment rate (%) relative to unedited cells", "setting": "[3]; 50 ng/mL IL-2 during Expansion Phase 0", "value": "lowest enrichment rate"}, {"measurement": "number of HA+ FOXP3+ edited cells (FIGS. 14A-14B)", "setting": "[3]; 50 ng/mL IL-2 during Expansion Phase 0, day 10 and 15 post-editing", "value": "highest number"}, {"measurement": "Day-3 flow cytometry Q1", "setting": "[3]; Q1 = HA- FOXP3+, Expansion Phase 0 additive, 10 nM rapamycin or 100 nM AP21967", "value": 4.42, "unit": "%"}, {"measurement": "Day-3 flow cytometry Q2", "setting": "[3]; Q2 = HA+ FOXP3+ successfully edited cells, Expansion Phase 0 additive, 10 nM rapamycin or 100 nM AP21967", "value": 16.40, "unit": "%"}, {"measurement": "Day-10 flow cytometry Q1", "setting": "[3]; after Expansion Phase 1, Q1 = HA- FOXP3+, Expansion Phase 0 additive, 10 nM rapamycin or 100 nM AP21967", "value": 2.59, "unit": "%"}, {"measurement": "Day-15 flow cytometry Q1", "setting": "[3]; after Expansion Phase 2, Q1 = HA- FOXP3+, Expansion Phase 0 additive, 10 nM rapamycin or 100 nM AP21967", "value": 3.97, "unit": "%"}, {"measurement": "CD25+ FOXP3+", "setting": "[4]", "value": 3.98, "unit": "%"}, {"measurement": "CD25+ FOXP3−", "setting": "[4]", "value": 8.50, "unit": "%"}, {"measurement": "CD 127+ FOXP3+", "setting": "[4]", "value": 0.26, "unit": "%"}, {"measurement": "CD 127+ FOXP3−", "setting": "[4]", "value": 8.84, "unit": "%"}, {"measurement": "CTLA4+ FOXP3+", "setting": "[4]", "value": 3.17, "unit": "%"}, {"measurement": "CTLA4+ FOXP3−", "setting": "[4]", "value": 1.33, "unit": "%"}, {"measurement": "ICOS+ FOXP3+", "setting": "[4]", "value": 3.32, "unit": "%"}, {"measurement": "ICOS+ FOXP3−", "setting": "[4]", "value": 0.40, "unit": "%"}, {"measurement": "LAG3+ FOXP3+", "setting": "[4]", "value": 1.85, "unit": "%"}, {"measurement": "LAG3+ FOXP3−", "setting": "[4]", "value": 3.43, "unit": "%"}]}
